This passage reports inhibition results from PubChem BioAssay AID1446 (The Scripps Research Institute Molecular Screening Center, 2008).

The entries are a selection whose mix differs from that of the whole data set. Active and inactive are the calls of the source.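 The calls were made as follows: active = inhibition above the campaign mean plus 3 SD over all tested compounds (cut at about 24% in these data); inactive = the rest.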

The assay can be described thus: reduced viability of JAK2V617F-dependent Ba/F3 cells, primary screen, JAK2V617F inhibitor project, cell-based, Ba/F3 EpoR-JAK2V617F, luminescence (AID 1446).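 Also: cytokine-independent growth of Ba/F3 cells driven by EpoR plus mutant JAK2; 0% = DMSO-treated cells and 100% = JAK inhibitor I control.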 The settings on record: ATP luminescence, at 5.6 µM, hits give high values.
For orientation: inhibition means the change of the read-out against control, counted positive when it falls. `COc1ccc(OP(C)(=O)Nc2ccccn2)cc1` (stereo not drawn): the inhibition is inactive: -0.06%.
Consider `CN(C)CCOC(=O)C(O)(c1ccccc1)C1CCCC1` (stereo not drawn), for which the inhibition is inactive: -1.61%.
`COc1ccccc1OP(C)(=O)Nc1ccc(Br)cc1` (stereo not drawn): the inhibition was inactive: -0.55%.
Consider `CP(=O)(Nc1ccccn1)Oc1ccccc1` (stereo not drawn), for which the inhibition is inactive: 0.33%.
For the compound `COc1ccccc1OP(C)(=O)Nc1ccc(C)cc1C` (stereo not drawn), the inhibition was inactive: -0.61%.
With `CCc1ccc(OP(C)(=O)O)cc1`, the inhibition was inactive: 2.28%.
For `Cc1c(NP(C)(=O)Oc2ccc(C(C)C)cc2)c(=O)n(-c2ccccc2)n1C` (stereo not drawn), the inhibition is inactive: -1.8%.
The result for `O=[N+]([O-])c1cc([N+](=O)[O-])c(Nc2ccccn2)c([N+](=O)[O-])c1` reads inactive: -1.46%; that for `COc1ccccc1OP(C)(=O)Nc1ccc(C)c(C)c1` (stereo not drawn), inactive: -2.79%; that for `COc1ccc(OP(C)(=O)Nc2ccccc2Br)cc1` (stereo not drawn), inactive: 1.9%.
Turning to `Cc1cc(C)cc(OP(C)(=O)Nc2cccc(C(F)(F)F)c2)c1` (stereo not drawn), the inhibition is inactive: -1%.
With `CP(=O)(Nc1ccc(Cl)cc1Cl)Oc1ccccc1` (stereo not drawn), the inhibition was inactive: 0.85%.
The result for `CP(=O)(OCCOc1ccccc1)OCCOc1ccccc1` reads inactive: 1.66%; that for `Cc1nc2ccc3ccccc3c2o1.O=[N+]([O-])c1cc([N+](=O)[O-])c(O)c([N+](=O)[O-])c1`, inactive: -1.45%.
For `CCOC(=O)c1ccc(NP(C)(=O)Oc2ccc(Cl)cc2)cc1` (stereo not drawn), the inhibition was inactive: 0.47%.
As to `CP(=O)(OC12CC3CC(CC(C3)C1)C2)OC12CC3CC(CC(C3)C1)C2`, the inhibition was inactive: 1.88%.
Take `COc1ccccc1OP(C)(=O)Nc1c(C)n(C)n(-c2ccccc2)c1=O` (stereo not drawn): the inhibition is inactive: 4.44%.
For `O=C(OCCCN1CCCC1)C(O)(c1ccccc1)C1CCCCC1` (stereo not drawn), the inhibition is inactive: 2.26%.
For the compound `CP(=O)(Oc1ccccc1)N1CCOC1=O` (stereo not drawn), the inhibition was inactive: -0.15%.
`CCc1ccc(OP(C)(=O)Nc2cccnc2)cc1` (stereo not drawn): the inhibition was inactive: -3.87%.
Regarding `CCN(CC)CC(O)COC(=O)C(O)(c1ccccc1)C1CCCCC1` (stereo not drawn), the inhibition is inactive: -0.71%.
As to `COc1ccc(OP(C)(=O)Nc2ccc(Br)cc2)cc1` (stereo not drawn), the inhibition is inactive: -0.47%.
`CN(C)C(=O)c1c([N+](=O)[O-])cc([N+](=O)[O-])cc1[N+](=O)[O-]`: the inhibition was inactive: 2.02%.
Consider `COc1ccccc1OP(C)(=O)Nc1ccccc1Br` (stereo not drawn), for which the inhibition was inactive: -4.8%.
Take `CC(C)(C)c1ccc(OP(C)(=O)O)cc1`: the inhibition is inactive: -1.44%.
The result for `CP(=O)(Nc1ccc(Cl)cc1)Oc1ccc(F)cc1` (stereo not drawn) reads inactive: 0.36%.
In the case of `CCOP(C)(=S)SCC(=O)NC(C)(CC)C(=O)O` (stereo not drawn), the inhibition was inactive: 0.27%.
Take `CP(=O)(Nc1ccc(SC(F)(F)F)cc1)Oc1ccc(F)cc1` (stereo not drawn): the inhibition was inactive: -3.19%.
The result for `Cc1ccccc1NP(C)(=O)Nc1ccccc1C` reads inactive: -3.89%.
The result for `CP(=O)(Nc1ccc2c(c1)OCCO2)Oc1ccccc1` (stereo not drawn) reads inactive: 0.66%.
On to `CN(C)CCOC(=O)C(O)(c1ccccc1)C1CCCCC1` (stereo not drawn), for which the inhibition is inactive: 4.59%.
Turning to `COc1ccc(NP(C)(=O)Oc2ccccc2OC)cc1` (stereo not drawn), the inhibition is inactive: 0.47%.
`COc1ccc(OP(C)(=O)Nc2cccc(Br)c2)cc1` (stereo not drawn): the inhibition was inactive: -1.97%.
The result for `O=[N+]([O-])c1ccc(OP2(=O)COCCO2)cc1` (stereo not drawn) reads inactive: 0.1%; that for `O=[N+]([O-])c1cc([N+](=O)[O-])c(NCC2CCS(=O)(=O)C2)c([N+](=O)[O-])c1` (stereo not drawn), inactive: 3.49%; that for `Cc1cc(-c2cccc3ccccc23)c(C)cn1.O=[N+]([O-])c1cc([N+](=O)[O-])c(O)c([N+](=O)[O-])c1`, inactive: -0.91%.
Consider `CCOC(=O)c1ccc(NP(C)(=O)Oc2ccc(F)cc2)cc1` (stereo not drawn), for which the inhibition was inactive: 1.77%.
In the case of `COc1ccc(OP(C)(=O)Nc2ccc(SC(F)(F)F)cc2)cc1` (stereo not drawn), the inhibition is inactive: -4%.
With `CP(=O)(Nc1ccccc1)Oc1ccc(F)cc1` (stereo not drawn), the inhibition is inactive: -1.75%.
`CCCCCOc1ccc(NP(C)(=O)Oc2ccc(Cl)cc2Cl)cc1` (stereo not drawn): the inhibition was inactive: 0.07%.
Consider `CCN(CC)CCCOC(=O)C(O)(c1ccccc1)C1CCCCC1` (stereo not drawn), for which the inhibition is inactive: 3.56%.
In the case of `CP(=O)(Nc1ccccc1F)Oc1ccccc1` (stereo not drawn), the inhibition was inactive: -0.54%.
Take `CC(C)c1ccc(OP(C)(=O)Nc2ccc(SC(F)(F)F)cc2)cc1` (stereo not drawn): the inhibition was inactive: -0.83%.
As for `O=C(OC1CN2CCC1CC2)c1ccc([N+](=O)[O-])cc1` (stereo not drawn), the inhibition is inactive: -0.49%.
As for `O=C(OCCN1CCN(CCOCc2ccccc2)CC1)C(O)(c1ccccc1)c1ccccc1`, the inhibition was inactive: 0.04%.
Consider `CCOC(=O)c1ccc(NP(C)(=O)Oc2cc(C)cc(C)c2)cc1` (stereo not drawn), for which the inhibition is inactive: -0.83%.
`Cc1cc(C)cc(OP(C)(=O)Nc2ccc(C)cc2C)c1` (stereo not drawn): the inhibition is inactive: 2.32%.
The result for `COc1ccccc1OP(C)(=O)Nc1cccc(Br)c1` (stereo not drawn) reads inactive: 4.49%; that for `Cc1ccc(C)c(NP(C)(=O)Oc2ccccc2)c1` (stereo not drawn), inactive: -0.42%.
`Cc1cc(C)cc(OP(C)(=O)Nc2ccccn2)c1` (stereo not drawn): the inhibition was inactive: -1.04%.
Regarding `CP(=O)(Nc1cccc(Br)c1)Oc1ccccc1` (stereo not drawn), the inhibition is inactive: -1.78%.
The result for `O=C(O)c1cccc(Nc2c([N+](=O)[O-])cc([N+](=O)[O-])cc2[N+](=O)[O-])c1` reads inactive: -0.91%.
In the case of `CC1=NCCc2c1[nH]c1ccccc21.O=[N+]([O-])c1cc([N+](=O)[O-])c(O)c([N+](=O)[O-])c1`, the inhibition is inactive: 4.34%.
With `O=[N+]([O-])c1cc([N+](=O)[O-])c(Nc2nnnn2CCO)c([N+](=O)[O-])c1`, the inhibition was inactive: -3.44%.
In the case of `CCOC(=O)C(CC)C1=NC(C)(C)Cc2ccccc21.O=[N+]([O-])c1cc([N+](=O)[O-])c(O)c([N+](=O)[O-])c1` (stereo not drawn), the inhibition was inactive: -0.96%.
For the compound `CCCOc1ccc(NP(C)(=O)Oc2ccc(Cl)cc2)cc1` (stereo not drawn), the inhibition was inactive: -1.61%.
The result for `CP(=O)(Nc1ccc(SC(F)(F)F)cc1)Oc1ccccc1` (stereo not drawn) reads inactive: -2.72%; that for `COc1ccccc1OP(C)(=O)Nc1c(C)cccc1C` (stereo not drawn), inactive: 2.79%.
In the case of `CN1CCCCC1COC(=O)C1(O)c2ccccc2CCc2ccccc21` (stereo not drawn), the inhibition was inactive: -4.82%.
Consider `O=[N+]([O-])c1cc([N+](=O)[O-])c(-n2nnc3ccccc32)c([N+](=O)[O-])c1`, for which the inhibition was inactive: 2.42%.
Regarding `Cc1nc2ccc3ccccc3c2s1.O=[N+]([O-])c1cc([N+](=O)[O-])c(O)c([N+](=O)[O-])c1`, the inhibition is inactive: -0.19%.
Turning to `CP(=O)(NC(=O)Nc1ccccc1)Oc1ccccc1` (stereo not drawn), the inhibition is inactive: 1.67%.
Regarding `CCc1ccc(OP(C)(=O)N2CCN(c3ccc([N+](=O)[O-])cc3)CC2)cc1` (stereo not drawn), the inhibition was inactive: 2.17%.
With `Cc1cc(C)cc(OP(C)(=O)Nc2ccc(SC(F)(F)F)cc2)c1` (stereo not drawn), the inhibition is inactive: 5.25%.
The result for `Cc1cccc(C)c1OP(C)(=O)Nc1ccc(SC(F)(F)F)cc1` (stereo not drawn) reads inactive: -3.26%; that for `CP(=O)(Nc1ccc(SC(F)(F)F)cc1)Oc1ccc(Cl)cc1` (stereo not drawn), inactive: 1.26%; that for `CP(=O)(Oc1ccccc1)OC(c1ccccc1)C(F)(F)F` (stereo not drawn), inactive: -0.53%.
The result for `CP(=O)(Nc1ccccn1)Oc1ccc(Cl)cc1` (stereo not drawn) reads inactive: -2.21%; that for `CCOC(=O)c1ccc(NP(C)(=O)Oc2ccc(OC)cc2)cc1` (stereo not drawn), inactive: 0.57%; that for `CCOP(C)(=S)SCC(=O)NC(C)C(=O)O` (stereo not drawn), inactive: 3.93%.
Regarding `CP(=O)(Nc1ccccc1Br)Oc1ccccc1` (stereo not drawn), the inhibition was inactive: 1.54%.
In the case of `COc1ccccc1OP(C)(=O)Nc1ccccc1` (stereo not drawn), the inhibition was inactive: -0.71%.
As for `CP(=S)(Nn1cnnc1)Oc1ccccc1` (stereo not drawn), the inhibition is inactive: 1.4%.
For the compound `O=[N+]([O-])c1ccc2c(c1)C=Nc1ccccc1O2`, the inhibition is inactive: -0.25%.
The result for `CC(C)(C)c1ccc(OP(C)(=O)Nc2ccc(SC(F)(F)F)cc2)cc1` (stereo not drawn) reads inactive: 1.24%; that for `Cc1cccc(C)c1OP(C)(N)=O` (stereo not drawn), inactive: 0.77%; that for `Cc1cc(C)cc(OP(C)(N)=O)c1` (stereo not drawn), inactive: 3.59%.
On to `COc1ccccc1OP(C)(=O)Nc1cc(Cl)ccc1C` (stereo not drawn), for which the inhibition was inactive: 0.86%.
`COc1ccc(OP(C)(=O)Nc2cccc(F)c2)cc1` (stereo not drawn): the inhibition is inactive: -2.93%.
Regarding `COc1ccccc1OP(C)(=O)Nc1ccc(C)cc1` (stereo not drawn), the inhibition is inactive: -0.88%.
With `Cc1ccc(NP(C)(=O)Oc2ccccc2)c(C)c1` (stereo not drawn), the inhibition was inactive: -4.87%.
`CCOC(=O)c1ccc(NP(C)(=O)Oc2ccccc2)cc1` (stereo not drawn): the inhibition was inactive: -3.07%.
As to `CCN(CC)CCCOC(=O)C(O)(c1ccccc1)c1ccccc1`, the inhibition was inactive: 0.26%.
